Reference: ChEMBL document CHEMBL5260839 (J Med Chem, 2019)

Sequences of proteins named here, by UniProt entry; tags and fusion partners are left off. A change or cut given only in a name is not applied to a line headed by its entry.
UniProt Q00987, whole entry, looked up: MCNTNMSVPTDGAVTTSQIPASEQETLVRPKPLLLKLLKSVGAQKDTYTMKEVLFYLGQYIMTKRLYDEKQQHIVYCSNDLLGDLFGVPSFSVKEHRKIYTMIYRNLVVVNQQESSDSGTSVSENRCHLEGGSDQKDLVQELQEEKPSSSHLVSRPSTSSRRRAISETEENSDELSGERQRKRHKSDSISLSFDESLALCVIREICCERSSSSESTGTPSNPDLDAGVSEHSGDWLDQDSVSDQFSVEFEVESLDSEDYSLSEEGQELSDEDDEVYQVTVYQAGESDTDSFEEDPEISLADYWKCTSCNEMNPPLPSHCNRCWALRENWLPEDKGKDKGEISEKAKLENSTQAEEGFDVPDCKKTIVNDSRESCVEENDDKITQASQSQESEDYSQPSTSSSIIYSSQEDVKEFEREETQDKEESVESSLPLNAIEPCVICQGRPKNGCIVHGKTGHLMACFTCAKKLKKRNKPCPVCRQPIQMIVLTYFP
UniProt Q96SW2: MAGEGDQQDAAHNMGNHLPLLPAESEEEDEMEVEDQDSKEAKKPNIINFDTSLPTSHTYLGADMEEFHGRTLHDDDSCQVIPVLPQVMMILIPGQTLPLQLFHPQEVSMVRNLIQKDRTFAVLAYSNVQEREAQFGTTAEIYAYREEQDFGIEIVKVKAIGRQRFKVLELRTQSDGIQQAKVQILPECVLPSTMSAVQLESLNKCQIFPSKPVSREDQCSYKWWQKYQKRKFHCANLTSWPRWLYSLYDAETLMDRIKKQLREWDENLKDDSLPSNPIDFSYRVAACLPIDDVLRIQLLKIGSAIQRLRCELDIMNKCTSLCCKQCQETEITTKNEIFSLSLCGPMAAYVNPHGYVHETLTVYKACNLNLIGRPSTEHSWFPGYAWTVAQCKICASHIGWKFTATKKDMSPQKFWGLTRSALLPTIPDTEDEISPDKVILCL

Tests used:
[1] = target: T1, Protein cereblon/E3 ubiquitin-protein ligase Mdm2 (Homo sapiens) (UniProt Q00987+Q96SW2); test: PROTAC activity at CRBN/MDM2 in human RS4-11 cells harbouring wildtype p53 assessed as upregulation of p21 mRNA expression by measuring fold change at 0.03 to 0.1 uM incubated for 6 hrs by qRT-PCR analysis relative to MI-1061; type: cell-based; conditions: dose 0.03-0.1 µM
[2] = target: T1, Protein cereblon/E3 ubiquitin-protein ligase Mdm2 (Homo sapiens); test: PROTAC activity at CRBN/MDM2 in human RS4-11 cells harbouring wildtype p53 assessed as fold change in p53 accumulation by Western blot analysis relative to MI-1061; type: cell-based
[3] = target: T1, Protein cereblon/E3 ubiquitin-protein ligase Mdm2 (Homo sapiens); test: PROTAC activity at CRBN/MDM2 in human MV4-11 cells assessed as fold reduction in MDM2 protein at 3 nM incubated for 2 hrs by Western blot analysis; type: cell-based
[4] = target: T1, Protein cereblon/E3 ubiquitin-protein ligase Mdm2 (Homo sapiens); test: PROTAC activity at CRBN/MDM2 in human RS4-11 cells harbouring wildtype p53 assessed as fold change in MDM2 level at 0.03 uM incubated for 2 hrs in the presence of lenalidomide by Western blot analysis; type: cell-based
[5] = target: T1, Protein cereblon/E3 ubiquitin-protein ligase Mdm2 (Homo sapiens); test: In vivo PROTAC activity at CRBN/MDM2 in human RS4-11 cells xenografted in mouse assessed as fold change in p21 protein level in tumor at 25 mg/kg, iv administered as single dose and measured after 24 hrs by Western blot analysis; type: functional, organism-based
[6] = target: T1, Protein cereblon/E3 ubiquitin-protein ligase Mdm2 (Homo sapiens); test: In vivo PROTAC activity at CRBN/MDM2 in human RS4-11 cells xenografted in mouse assessed as fold change in cleaved PARP protein level in tumor at 25 mg/kg, iv administered as single dose and measured after 24 hrs by Western blot analysis; type: functional, organism-based
[7] = target: T1, Protein cereblon/E3 ubiquitin-protein ligase Mdm2 (Homo sapiens); test: PROTAC activity at CRBN/MDM2 in human RS4-11 cells harbouring wildtype p53 assessed as increase in p53 accumulation at 10 nM incubated for 2 hrs by Western blot analysis; type: cell-based
[8] = target: T1, Protein cereblon/E3 ubiquitin-protein ligase Mdm2 (Homo sapiens); test: In vivo PROTAC activity at CRBN/MDM2 in human RS4-11 cells xenografted in mouse assessed as fold change in cleaved PARP protein level in tumor at 25 mg/kg, iv administered as single dose and measured after 3 hrs by Western blot analysis; type: functional, organism-based
[9] = target: T1, Protein cereblon/E3 ubiquitin-protein ligase Mdm2 (Homo sapiens); test: PROTAC activity at CRBN/MDM2 in human RS4-11 cells harbouring wildtype p53 assessed as fold change in p53 accumulation at 30 nM preincubated with PR-171 for 4 hrs followed by compound treatment and measured after 2 hrs by Western blot analysis; type: cell-based
[10] = target: T1, Protein cereblon/E3 ubiquitin-protein ligase Mdm2 (Homo sapiens); test: In vivo PROTAC activity at CRBN/MDM2 in human RS4-11 cells xenografted in mouse assessed as fold change in MDM2 protein level in tumor at 25 mg/kg, iv administered as single dose and measured after 6 hrs by Western blot analysis; type: functional, organism-based
[11] = target: T1, Protein cereblon/E3 ubiquitin-protein ligase Mdm2 (Homo sapiens); test: PROTAC activity at CRBN/MDM2 in human MV4-11 cells assessed as fold reduction in MDM2 protein at 30 nM incubated for 2 hrs by Western blot analysis; type: cell-based
[12] = target: T1, Protein cereblon/E3 ubiquitin-protein ligase Mdm2 (Homo sapiens); test: PROTAC activity at CRBN/MDM2 in human RS4-11 cells harbouring wildtype p53 assessed as decrease in MDM2 protein level at 1 nM incubated for 2 hrs by Western blot analysis; type: cell-based
[13] = target: T1, Protein cereblon/E3 ubiquitin-protein ligase Mdm2 (Homo sapiens); test: In vivo PROTAC activity at CRBN/MDM2 in human RS4-11 cells xenografted in mouse assessed as fold change in cleaved PARP protein level in tumor at 25 mg/kg, iv administered as single dose and measured after 6 hrs by Western blot analysis; type: functional, organism-based
[14] = target: T1, Protein cereblon/E3 ubiquitin-protein ligase Mdm2 (Homo sapiens); test: PROTAC activity at CRBN/MDM2 in human RS4-11 cells harbouring wildtype p53 assessed as increase in p53 accumulation at 30 nM incubated for 2 hrs by Western blot analysis; type: cell-based

## O=C1CCC(N2Cc3c(C#CCCCNC(=O)c4ccc(NC(=O)[C@@H]5NC6(CCCCC6)[C@@]6(C(=O)Nc7cc(Cl)ccc76)[C@H]5c5cccc(Cl)c5F)cc4)cccc3C2=O)C(=O)N1 (some centres undefined)
[1]
  fold change (FC): > 10
[2]
  fold change (FC): > 10
[3]
  fold change (FC): 0.3
[4]
  fold change (FC): 1
[5]
  fold change (FC): 2.4
[6]
  fold change (FC): 47.4
[7]
  fold change (FC): 2.7
[8]
  fold change (FC): 5.9
[9]
  fold change (FC): 8.2
[10]
  fold change (FC): 0.2
[11]
  fold change (FC): 0.5
[12]
  fold change (FC): 0.2
[13]
  fold change (FC): 12.4
[14]
  fold change (FC): 8.4
